{"source": "patent US9643995B2", "about": "“Triterpene glycoside and triterpene compositions and methods of using same” (Research Foundation of the City University of New York, priority 2013, dated 2017)", "key": {"[1]": {"system": "MDA-MB-453 cells", "test": "Apoptosis: DNA fragmentation", "assay_type": "cell-based, human", "conditions": "actein 2 μg/ml, Herceptin 16 μg/ml, 48 h", "protocol": "(§1) Actein synergizes with herceptin on apoptosis: To provide further evidence of an interaction with Her2, we tested the effect of actein (2 μg/ml) alone, or combined with the antibody to Her2 Herceptin (trastuzumab) (16 μg/ml), on measures of apoptosis, caspase 3 activity or DNA fragmentation, after treating MDA-MB-453 cells for 48 h. The results are as follows (fold relative to control): for caspase 3: DMSO (control): 1.0; actein: 1.29; Herceptin: 1.284; actein+Herceptin: 1.955 (FIG. 1B); for DNA fragmentation: DMSO (control) 1.0; actein: 0.89; Herceptin: 1.09; actein+Herceptin: 1.34 (p<0.01) (FIG. 3B). Thus, actein induces apoptosis and enhances the apoptotic activity of Herceptin."}, "[2]": {"system": "MDA-MB-453 cells", "test": "Apoptosis: caspase 3 activity", "assay_type": "cell-based, human", "conditions": "actein 2 μg/ml, Herceptin 16 μg/ml, 48 h", "protocol": "as §1"}, "[3]": {"system": "MDA-MB-453", "conditions": "MDA-MB-453 (Yakes et al., 2002); cited from earlier work"}}, "data": [{"substance": "Herceptin: Anti-Her2 specific antibody [reference compound]", "values": [{"measurement": "DNA fragmentation", "setting": "[1]", "result": "1.09 fold relative to control"}, {"measurement": "caspase 3 activity", "setting": "[2]", "result": "1.284 fold relative to control"}, {"measurement": "sensitivity of cells to agent", "setting": "[3]", "result": "relatively resistant"}]}]}
